These are literature values, as cited in US20220331433A1, “NUCLEIC ACID-MEDIATED DELIVERY OF THERAPEUTICS” (The Regents of the University of California, priority 2019, published 2022).

For this data set the following is noted: reported; cited from earlier work.

For the substance “N-(2-hydroxypropyl) methyl acrylamide polymer-doxorubicin [HPMA-DOX]”, the Circulation time is 20.1 h.
